Source: PubChem BioAssay
Only some compounds are listed: those with a hit (about 1.9% of all), similar ones and a draw of the others.
ARNT TACC3 PPI – disrupts binding between human ARNT and TACC3; Q9Y6A5; AlphaScreen His-ARNT PAS-B/GST-TACC3 binding, luminescence; TACC3 fragment carries E629A point mutation; inhibition, % at 9.99 µM; actives 0.66% (n = 390,000); AID 623870;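 active means mean inhibition of replicates at least 50% and at least half of replicates each reaching 50%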
PglD inh – inhibitors of Campylobacter jejuni PglD acetyltransferase; purified PglD enzyme, DTNB colorimetric CoA detection; inhibition, % at 12.5 µM; actives 0.098% (n = 360,000); AID 602405; in the data active means inhibition above about 16%, passing the limit was not always enough
ERp5 inh – blocks human ERp5 reductase activity on insulin | Q15084 | ERp5 insulin aggregation, absorbance 650 nm, 90 min | inhibition, % at 9.99 µM | actives 0.05% (n = 350,000);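 active means mean replicate inhibition above about 25%, with every replicate also reaching it, limit read from the data, passing the limit was not always enough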
FGF22 binding – FGF22 (human) thermal shift binding; Q9HCT0; recombinant FGF22 thermal shift, SYPRO orange fluorescence; percent of sucrose octasulfate shift, DMSO zero; activity (Tm shift, normalised), % at 9.99 µM; actives 1.5% (n = 340,000); AID 651658;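 active means mean Tm shift, scaled 0 neutral to 100 positive control, at about 1.3% or above, every replicate too, limit read from the data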
Yeast UUG start – modulators of yeast start codon fidelity, primary screen, whole organism, S. cerevisiae, single point, plate reader | AID 602363, 2012 | actives 0.13% (n = 350,000) | activity score, % at 18.7 µM | S. cerevisiae UUG-firefly luciferase reporter, luminescence/redox ratio;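 active means replicate mean at a twofold rise or more, about +100% in these data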;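 further: firefly luciferase made from a UUG start codon reports start codon fidelity; reporter light over untreated wells divided by growth signal over untreated wells; some hits fall short of that in this replicate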
PDI inh – blocks human protein disulfide isomerase activity; PDI insulin aggregation turbidity, A650, 90 min; AID 588391; actives 0.052% (n = 350,000); inhibition, % at 10 µM;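 active means mean inhibition across replicates of 30% or more, whatever share of single replicates reach that level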
Numbers stand for hits; . = inactive; / = no result.

SMILES | ARNT TACC3 PPI | PglD inh | ERp5 inh | FGF22 binding | Yeast UUG start | PDI inh
CN1C(=O)c2cc(NS(=O)(=O)c3cccc(F)c3)ccc2OC[C@H]2O[C@H](CC(=O)N3CCc4ccccc4C3)CC[C@H]21 | . | . | . | . | / | /
Cc1noc(C)c1NC(=O)Nc1ccc2c(c1)C(=O)N([C@@H](C)CO)C[C@H](C)[C@H](CN(C)Cc1ccccc1)O2 | . | . | . | . | . | /
C=CCc1cc(/C=C/c2nc(O)c([N+](=O)[O-])c(=O)[nH]2)cc(OC)c1O | . | / | . | 43.2 | / | .
CCCOC(=O)c1cc(=O)[nH]c2ccccc12 | . | . | / | / | . | .
CCOC(=O)Cc1c(Cl)c2ccccc2[nH]c1=O | . | . | . | 43.1 | . | .
O=C(NCCc1ccccc1)c1cc(=O)[nH]c2ccccc12 | . | . | . | 43.3 | . | .
CCOC(=O)c1cc(=O)[nH]c2ccccc12 | . | / | . | 43.4 | / | .
O=C(NN=Cc1ccc([N+](=O)[O-])cc1)c1ccncc1 | . | . | . | 43.9 | . | .
O=C(N/N=C/c1ccc([N+](=O)[O-])cc1)c1ccc(COc2ccccc2-c2ccccc2)cc1 | / | / | . | 43.7 | / | .
N#C[C@@H]1[C@H](c2ccc(-c3cccc(F)c3)cc2)[C@H](CO)N1C(=O)NC1CCCCC1 | / | / | . | / | / | /
CCOC(=O)C1(CCOC)CCN(C2C3CC4CC(C3)CC2C4)CC1 (centres undefined) | . | . | . | 43.3 | . | .
OCC(O)C1OC(Nc2ccc(Br)cc2)C(O)C1O (centres undefined) | . | / | . | 42.9 | / | .
CCOc1cc(N2CCOCC2)c(OCC)cc1NC(=O)c1ccc(OC(C)C)cc1 | / | / | . | 43.4 | / | .
CC1=NN(c2cc(Cl)c(S(=O)(=O)O)cc2Cl)C(=O)C1 | 30.0 | . | . | / | . | .
COc1ccc2cc(-c3[nH]ncc3CN3CCCN(c4ccccc4)CC3)ccc2c1 | . | / | . | 43.8 | / | .
C[C@@H]1CCCCO[C@H](CN(C)C(=O)CCC(F)(F)F)[C@H](C)CN([C@@H](C)CO)C(=O)c2cc(NS(=O)(=O)c3ccc(Cl)cc3)ccc2O1 | . | . | . | . | / | /
C[C@@H]1CN([C@@H](C)CO)C(=O)c2cc(NS(=O)(=O)c3ccc(Cl)cc3)ccc2O[C@@H](C)CCCCO[C@H]1CN(C)S(=O)(=O)c1cn(C)cn1 | . | . | . | 1.4 | . | /
C[C@@H]1CCCCO[C@H](CN(C)Cc2ccc(Cl)c(Cl)c2)[C@@H](C)CN([C@H](C)CO)C(=O)c2cc(NS(=O)(=O)c3cccs3)ccc2O1 | . | . | . | 1.2 | . | /
C[C@H](CO)N1C[C@H](C)[C@@H](CN(C)Cc2ccc(Cl)c(Cl)c2)OCCCC[C@H](C)Oc2ccc(NS(=O)(=O)c3cccs3)cc2C1=O | . | . | . | . | . | /
C[C@@H]1CCCCO[C@@H](CN(C)C(=O)CCC(F)(F)F)[C@@H](C)CN([C@@H](C)CO)C(=O)c2cc(NS(=O)(=O)c3ccc(Cl)cc3)ccc2O1 | . | . | 70.2 | . | / | /
Cc1noc(C)c1S(=O)(=O)Nc1ccc2c(c1)C(=O)N([C@H](C)CO)C[C@@H](C)[C@@H](CN(C)Cc1ccc(C(=O)O)cc1)OCCCC[C@H](C)O2 | . | . | . | 1.3 | . | /
C[C@@H]1CCCCO[C@H](CN(C)S(=O)(=O)c2cn(C)cn2)[C@H](C)CN([C@H](C)CO)C(=O)c2cc(NS(=O)(=O)c3ccc(Cl)cc3)ccc2O1 | . | . | . | . | . | /
CCC(=O)N1CC2(C1)[C@H](c1ccccc1)[C@@H](CO)N2Cc1ccccc1OC | / | / | . | . | / | /
COc1ccc(S(=O)(=O)Nc2ccc3c(c2)C(=O)N([C@@H](C)CO)C[C@H](C)[C@H](CN(C)S(=O)(=O)c2ccc(OC)cc2)OCCCC[C@H](C)O3)cc1 | . | . | / | 15.3 | . | /
C[C@@H]1CCCCO[C@H](CN(C)S(=O)(=O)c2ccc(Cl)cc2)[C@H](C)CN([C@H](C)CO)C(=O)c2cc(NS(=O)(=O)c3ccc(Cl)cc3)ccc2O1 | . | . | / | 29.5 | . | /
C[C@@H]1CCCCO[C@H](CN(C)S(=O)(=O)c2cccs2)[C@@H](C)CN([C@H](C)CO)C(=O)c2cc(NS(=O)(=O)c3ccc(Cl)cc3)ccc2O1 | . | . | . | 1.6 | . | /
